## Measured affinities in a library of Ab-95 light chain variants

From the AlphaSeq antibody data of Engelhart et al. 2022 (doi:10.1038/s41597-022-01779-4), copy in the FLAb collection.

All variants were tested on one target, the spike HR2 peptide PDVDLGDISGINAS (SARS-CoV-2).

Parent scFv Ab-95: VH joined to VL by the linker GGGGSGGGGSGGGGS. Changes lie in the light chain CDRs alone.
VH: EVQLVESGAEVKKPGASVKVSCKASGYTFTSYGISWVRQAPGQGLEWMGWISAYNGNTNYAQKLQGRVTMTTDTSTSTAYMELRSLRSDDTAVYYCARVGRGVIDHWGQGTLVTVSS
VL: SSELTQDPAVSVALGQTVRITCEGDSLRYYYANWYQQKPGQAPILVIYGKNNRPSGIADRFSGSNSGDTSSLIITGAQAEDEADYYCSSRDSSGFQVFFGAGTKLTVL

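The parent was found by panning a naive human phage display library on the peptide. In library AAYL52, one, two or three CDR residues were substituted; doubles and triples were drawn at random. The scFvs were displayed on barcoded MATa yeast, the peptide on MATalpha yeast. Mating (16 h, 30 °C) was followed by selection of diploids and sequencing of their barcodes. A regression on co-assayed BCL2-family reference pairs converts the normalised counts of each replicate to an apparent Kd. Each pool was mated in three replicate cultures.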

Changes read parent residue, position, new residue, counted from the first residue of the VL shown.
This list gathers variants with a substitution at A32 (VL, numbered from residue 1).
The read-out is the apparent dissociation constant on a log10 scale (nM): the lower, the stronger.
Replicates are averaged; those with no signal do not enter the mean.
Where no diploid with the target was found in any replicate, the entry reads "nd": below detection, most likely a poor binder, though not proof of it.

For R28Q/Y30W/A32F, the assay gave 2.92 (3 of 3 replicates; controls 8 of 9). Variant A32T/G94Y showed 2.11 (3 of 3 replicates; controls 3 of 9). Variant Y31G/A32W/N52S gave 2.44 (3 of 3 replicates; controls 5 of 9). Variant G24I/A32K/S92T gave nd (0 of 3 replicates; controls 6 of 9). With L27Q/A32E/K50F the result was nd (0 of 3 replicates; controls 2 of 9).

Variant A32I/N33W/D91S gave 4.13 (1 of 3 replicates; controls 0 of 9). With A32V/P54C/S88W the result was 4.76 (3 of 3 replicates; controls 4 of 9). With A32T/S55N/Q96E the result was 3.05 (3 of 3 replicates; controls 1 of 9). Variant A32H/N52A/S88C showed 4.10 (2 of 3 replicates; controls 1 of 9). For E23R/A32F, the assay gave 2.98 (3 of 3 replicates; controls 1 of 9).

Variant R28K/A32F/P54C gave 4.58 (3 of 3 replicates; controls 3 of 9). With Y31C/A32N/N33P the result was 4.61 (3 of 3 replicates; controls 4 of 9). With Y30D/A32I/Q96F the result was 3.11 (3 of 3 replicates; controls 3 of 9). For A32N/K50F/D91C, the assay gave nd (0 of 3 replicates; controls 1 of 9). For L27D/Y30M/A32F, the assay gave 2.53 (3 of 3 replicates; controls 3 of 9).

With S26I/A32R/N52A the result was 3.44 (1 of 3 replicates; controls 0 of 9). With A32H/P54F/S89C the result was 2.71 (3 of 3 replicates; controls 6 of 9). Variant L27D/A32C/Q96P gave 4.01 (2 of 3 replicates; controls 2 of 9). With Y29G/A32C/N33W the result was nd (0 of 3 replicates; controls 1 of 9). With A32V/P54W/R90V the result was 3.33 (3 of 3 replicates; controls 0 of 9).

Variant G24Y/Y29S/A32E showed nd (0 of 3 replicates; controls 1 of 9). For S26D/Y30G/A32F, the assay gave 2.15 (3 of 3 replicates; controls 3 of 9). For A32V/P54I/Q96L, the assay gave nd (0 of 3 replicates; controls 1 of 9). For L27D/A32V/K50W, the assay gave 3.90 (3 of 3 replicates; controls 4 of 9). Variant L27D/A32H/Q96K gave 2.88 (3 of 3 replicates; controls 4 of 9).

For A32E/S55Q/R90E, the assay gave 3.94 (1 of 3 replicates; controls 2 of 9). For D25Y/Y31W/A32S, the assay gave 2.94 (3 of 3 replicates; controls 0 of 9). Variant Y31W/A32K/S55W showed 4.53 (3 of 3 replicates; controls 4 of 9). For A32L/N51V/S92E, the assay gave 1.52 (3 of 3 replicates; controls 3 of 9). For L27S/A32W/N52G, the assay gave nd (0 of 3 replicates; controls 0 of 9).

For Y29W/A32F/D91C, the assay gave 3.25 (2 of 3 replicates; controls 3 of 9). Variant A32D/F98C showed 3.55 (1 of 3 replicates; controls 3 of 9). With L27D/A32Q/S55Y the result was 4.00 (2 of 3 replicates; controls 3 of 9). Variant A32Y/G49H/S55W gave nd (0 of 3 replicates; controls 0 of 9). For S26R/A32K/S92Y, the assay gave 1.88 (3 of 3 replicates; controls 2 of 9).

For R28I/A32M/K50C, the assay gave nd (0 of 3 replicates; controls 0 of 9). For A32I/N52H/S89D, the assay gave 4.55 (1 of 3 replicates; controls 1 of 9). With S26I/A32F/S92N the result was 3.08 (1 of 3 replicates; controls 0 of 9). Variant R28W/A32N/D91K gave 4.34 (2 of 3 replicates; controls 2 of 9). For A32D/R53Y/G94A, the assay gave 4.64 (1 of 3 replicates; controls 2 of 9).

With Y31A/A32D/S55R the result was 5.41 (1 of 3 replicates; controls 1 of 9). Variant A32L/R53H gave 4.04 (2 of 3 replicates; controls 3 of 9). For A32Q/R90E/G94D, the assay gave 4.46 (2 of 3 replicates; controls 2 of 9). For Y29C/A32I/P54G, the assay gave nd (0 of 3 replicates; controls 0 of 9). With E23T/A32E/V97A the result was 4.31 (1 of 3 replicates; controls 0 of 9).

With A32Y/N33G/R53V the result was 4.55 (1 of 3 replicates; controls 3 of 9). Variant E23F/A32G/R53V gave 2.59 (3 of 3 replicates; controls 2 of 9). Variant Y30E/A32V/K50H showed 1.56 (3 of 3 replicates; controls 1 of 9). Variant A32Y/R90M/G94V gave 3.95 (1 of 3 replicates; controls 3 of 9). Variant Y31F/A32G/S88K gave 5.26 (1 of 3 replicates; controls 3 of 9).

Variant A32S/S55M/F95K showed 3.83 (1 of 3 replicates; controls 0 of 9). With A32M/P54F/S92I the result was 5.09 (1 of 3 replicates; controls 4 of 9). For A32D/D91Y, the assay gave 4.22 (2 of 3 replicates; controls 4 of 9). With A32E/G49T/V97K the result was 4.17 (1 of 3 replicates; controls 2 of 9).

For reference, 7 entries of the list once more:

The variant Y31W/A32K/S55W showed 4.53 (3 of 3 replicates; controls 4 of 9).
The variant A32N/K50F/D91C showed nd (0 of 3 replicates; controls 1 of 9).
The variant Y30E/A32V/K50H showed 1.56 (3 of 3 replicates; controls 1 of 9).
The variant S26I/A32F/S92N showed 3.08 (1 of 3 replicates; controls 0 of 9).
The variant A32E/S55Q/R90E showed 3.94 (1 of 3 replicates; controls 2 of 9).
The variant R28I/A32M/K50C showed nd (0 of 3 replicates; controls 0 of 9).
The variant A32Y/G49H/S55W showed nd (0 of 3 replicates; controls 0 of 9).

In this assay the parent's reference entry averaged 2.31; its copy inside this library read 2.25.
Background: pairings of library AAYL52 with three empty control strains gave a value in 28% of cases (median 3.91, 5th percentile 2.90). Values in that range, when seen in few replicates, are hard to tell from nonspecific mating. The control count says in how many pairings with the empty strains this scFv gave a signal.